Only a part is listed here, and it is no random draw. Calls of active or inactive are those of the source. Calls come from the whole dose curve; as a rule, active = well fitted falling curve with a large enough effect; inconclusive = small, poorly fitted or top-dose-only effect; inactive = no such curve, though single readings can be large or run the other way.
% is set by controls: 0 for no effect and ±100 for the full control effect.

This test in a line: qHTS Assay for Inhibitors of the HIV-1 protein Vpr. Note: nearly all actives have a fitted effect of over 50% in size. The settings on record: S. pombe RE007 Vpr strain, BacTiter-Glo ATP luminescence, 24 h; at 92.2 µM (top of the series). Background: Quantitative high-throughput screening tests each substance at several concentrations.
Consider `CCC(=O)N(c1ccccc1)C1(COC)CCN(CCc2cccs2)CC1`, for which the activity change, negative = less growth was inactive: 0.863%. Regarding `CCC(=O)N(c1ccccc1)C1(COC)CCN(CCn2nnn(CC)c2=O)CC1`, the activity change, negative = less growth is inactive: -4.45%.

The record behind these values is PubChem BioAssay AID651644 (National Center for Advancing Translational Sciences (NCATS), 2012).
